Test results reported in paper PMC6066304.

Target: Arabidopsis thaliana plant cysteine oxidase 4 (Arabidopsis thaliana) (UniProt Q9SJI9)

Km for AtRAP2(2–15); initial rates of N-terminal cysteine oxidation by LC-MS, Michaelis–Menten fit with substrate inhibition, atmospheric O2, pH 8.0, 25 °C: 0.69 mM
Substance: AtRAP2(2–15), 14-amino acid peptide corresponding to the methionine excised N terminus of AtRAP2.2 and AtRAP2.12
